Data published in ChEMBL document CHEMBL3639372, “Disubstituted azepan orexin receptor antagonists” (2014).

Chains of the proteins cited; added tags and fusions are not shown.
UniProt P56718, whole entry: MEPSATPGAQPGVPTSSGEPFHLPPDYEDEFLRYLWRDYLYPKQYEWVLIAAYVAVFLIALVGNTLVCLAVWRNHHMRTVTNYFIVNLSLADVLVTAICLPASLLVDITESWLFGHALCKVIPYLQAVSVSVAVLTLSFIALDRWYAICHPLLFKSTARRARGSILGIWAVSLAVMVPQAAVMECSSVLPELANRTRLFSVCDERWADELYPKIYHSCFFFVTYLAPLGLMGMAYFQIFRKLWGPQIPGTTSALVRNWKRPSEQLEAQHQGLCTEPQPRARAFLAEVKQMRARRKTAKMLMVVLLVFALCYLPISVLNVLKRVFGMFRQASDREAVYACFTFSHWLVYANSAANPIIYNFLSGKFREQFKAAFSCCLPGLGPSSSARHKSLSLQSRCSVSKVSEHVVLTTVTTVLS

Each molecule was assayed against Orexin/Hypocretin receptor type 1 (Rattus norvegicus, UniProt P56718) (assay: Radioligand Binding Assay: Compound potency can be assessed by a radioligand binding assay (described in Bergman et. al. Bioorg. Med. Chem. Lett. 2008, 18, 1425-1430) in which the inhibition constant (Ki) is determined in membranes prepared from CHO cells expressing either the orexin-1 (OX1) or orexin-2 (OX2) receptor.).
Format: cell membranes

Ki [nM] | Compound
190 | CC1CCCC(COc2ccc(F)cn2)CN1C(=O)c1ccccc1-n1nccn1 (stereo not drawn)
110 | Cc1ccc(-c2ncco2)c(C(=O)N2CC(COc3ccc(F)cn3)CCCC2C)c1 (stereo not drawn)
29 | Cc1ccc(-c2nccs2)c(C(=O)N2CC(COc3ccc(F)c(C)c3)CCCC2C)c1 (stereo not drawn)
